From publication PMC9578707, “Identification of orphan ligand-receptor relationships using a cell-based CRISPRa enrichment screening platform” (eLife, 2022)

Target: TAFA-5 (human) (UniProt Q7Z5A7)
Assay: SPR; Biacore T100; biotinylated ligand captured on a streptavidin (SA) Series S chip (~100-200 RU); non-biotinylated analyte in twofold dilutions in HBS-P+; 60 s injection at 30 ul/min, 240 s dissociation; regeneration 2 x 10 sec 2M MgCl2; KD from the fit at equilibrium (steady state)

With “RNF167-ECD (transmembrane PA-TM-RING E3 ligase RNF167, extracellular domain) (from UniProt Q9H6Y7 25-350) (domain or fragment)” as the substance, how does the Kd read?
The Kd was 23.3 µM.
